We go through one molecule from ChEMBL document CHEMBL3091286 (Bioorg Med Chem, 2013).

Chains of the proteins cited; added tags and fusions are not shown.
5-hydroxytryptamine receptor 3A (Homo sapiens), P46098, UniProt P46098, whole entry W178C: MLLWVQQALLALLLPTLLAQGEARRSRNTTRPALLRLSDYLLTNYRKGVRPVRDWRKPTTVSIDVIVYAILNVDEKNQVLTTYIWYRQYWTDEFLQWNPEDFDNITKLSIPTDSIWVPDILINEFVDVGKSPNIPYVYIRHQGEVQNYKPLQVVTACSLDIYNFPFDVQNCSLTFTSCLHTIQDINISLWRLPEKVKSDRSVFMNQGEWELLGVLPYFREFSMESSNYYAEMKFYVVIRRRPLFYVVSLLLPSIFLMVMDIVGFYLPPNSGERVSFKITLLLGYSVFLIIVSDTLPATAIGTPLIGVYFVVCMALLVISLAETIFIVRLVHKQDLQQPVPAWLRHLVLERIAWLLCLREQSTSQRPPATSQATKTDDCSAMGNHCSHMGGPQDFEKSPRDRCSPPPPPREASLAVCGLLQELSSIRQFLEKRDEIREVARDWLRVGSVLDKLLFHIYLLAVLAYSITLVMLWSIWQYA
5-hydroxytryptamine receptor 3A (Homo sapiens), P46098, UniProt P46098, whole entry F125Y: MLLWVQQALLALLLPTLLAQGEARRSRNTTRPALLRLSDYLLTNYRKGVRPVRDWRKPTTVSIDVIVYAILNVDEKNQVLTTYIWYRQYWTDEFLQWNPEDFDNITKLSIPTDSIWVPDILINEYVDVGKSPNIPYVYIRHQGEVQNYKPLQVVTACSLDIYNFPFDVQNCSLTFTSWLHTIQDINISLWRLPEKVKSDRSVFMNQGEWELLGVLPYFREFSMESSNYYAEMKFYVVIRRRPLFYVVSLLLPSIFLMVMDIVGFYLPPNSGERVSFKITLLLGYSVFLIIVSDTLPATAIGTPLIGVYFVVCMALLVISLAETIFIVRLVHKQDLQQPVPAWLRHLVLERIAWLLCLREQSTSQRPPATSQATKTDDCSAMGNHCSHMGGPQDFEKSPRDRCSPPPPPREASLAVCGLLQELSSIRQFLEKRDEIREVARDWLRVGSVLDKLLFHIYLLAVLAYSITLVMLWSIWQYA
5-hydroxytryptamine receptor 3A (Homo sapiens), P46098, UniProt P46098, whole entry W85C: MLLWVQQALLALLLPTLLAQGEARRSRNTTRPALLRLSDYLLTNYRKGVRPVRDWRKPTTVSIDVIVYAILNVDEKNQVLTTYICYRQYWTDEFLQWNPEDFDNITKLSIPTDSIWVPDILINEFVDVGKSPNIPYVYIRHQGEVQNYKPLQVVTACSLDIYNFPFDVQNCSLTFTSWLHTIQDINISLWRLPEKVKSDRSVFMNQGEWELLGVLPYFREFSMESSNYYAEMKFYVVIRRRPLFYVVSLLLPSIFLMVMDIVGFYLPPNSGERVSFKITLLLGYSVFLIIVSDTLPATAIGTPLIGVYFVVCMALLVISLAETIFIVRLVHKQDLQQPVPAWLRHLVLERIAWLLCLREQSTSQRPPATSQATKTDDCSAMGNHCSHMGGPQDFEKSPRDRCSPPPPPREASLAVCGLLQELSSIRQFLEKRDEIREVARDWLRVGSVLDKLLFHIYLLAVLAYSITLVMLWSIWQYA

The source made the active and inactive calls. No cut-off for these calls is given here.

The species entered for one assay is Homo sapiens. The assay is described as follows: Ratio of Kd for human 5-HT3B receptor F130A mutant to Kd for human wild type 5-HT3A/5-HT3B receptor.
In assay [1] the test system is 5-hydroxytryptamine receptor 3A (Homo sapiens), P46098 [W178C]. The assay is described as follows: Antagonist activity at human 5-HT3A receptor W183C mutant assessed as inhibition of 5-HT-induced response after 45 mins by FLIPR assay.
The subject of assay [2] is 5-hydroxytryptamine receptor 3A (Homo sapiens), P46098 [F125Y]. The assay is described as follows: Antagonist activity at human 5-HT3A receptor F130Y mutant assessed as inhibition of 5-HT-induced response after 45 mins by FLIPR assay.
Assay [3] concerns 5-hydroxytryptamine receptor 3A (Homo sapiens), P46098 [W85C]. The assay is described as follows: Antagonist activity at human 5-HT3A receptor W90C mutant assessed as inhibition of 5-HT-induced response after 45 mins by FLIPR assay.

For `O=C1c2cccc3c2[C@H](CCC3)CN1[C@@H]1CN2CCC1CC2` [PALONOSETRON], the Ratio in the assay filed under Homo sapiens turned out to be 2. Besides, the inhibition entry in assay [1], in assay [2] and in assay [3] was “inactive” in each case.
